From ChEMBL document CHEMBL6134854, “Development of Hydrazide-Based HDAC6 Selective Inhibitors for Treating NLRP3 Inflammasome-Related Diseases” (J Med Chem, 2025) come the findings set out here.

The chains behind the UniProt entries cited, without tags or fusion partners.
UniProt O09106, whole entry: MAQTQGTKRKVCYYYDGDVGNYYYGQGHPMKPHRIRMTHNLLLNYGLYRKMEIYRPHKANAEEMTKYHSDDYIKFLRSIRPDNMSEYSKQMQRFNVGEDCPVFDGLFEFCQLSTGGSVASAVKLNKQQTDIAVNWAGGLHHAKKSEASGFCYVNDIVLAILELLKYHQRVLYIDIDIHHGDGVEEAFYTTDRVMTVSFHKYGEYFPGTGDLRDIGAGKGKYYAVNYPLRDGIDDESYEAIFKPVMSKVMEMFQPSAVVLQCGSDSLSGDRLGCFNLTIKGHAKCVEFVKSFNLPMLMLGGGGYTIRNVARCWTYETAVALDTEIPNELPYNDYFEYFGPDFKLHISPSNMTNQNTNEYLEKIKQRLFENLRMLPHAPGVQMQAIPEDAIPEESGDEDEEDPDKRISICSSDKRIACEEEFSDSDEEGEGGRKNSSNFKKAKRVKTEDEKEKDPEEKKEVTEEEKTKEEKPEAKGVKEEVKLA
UniProt P70288, whole entry: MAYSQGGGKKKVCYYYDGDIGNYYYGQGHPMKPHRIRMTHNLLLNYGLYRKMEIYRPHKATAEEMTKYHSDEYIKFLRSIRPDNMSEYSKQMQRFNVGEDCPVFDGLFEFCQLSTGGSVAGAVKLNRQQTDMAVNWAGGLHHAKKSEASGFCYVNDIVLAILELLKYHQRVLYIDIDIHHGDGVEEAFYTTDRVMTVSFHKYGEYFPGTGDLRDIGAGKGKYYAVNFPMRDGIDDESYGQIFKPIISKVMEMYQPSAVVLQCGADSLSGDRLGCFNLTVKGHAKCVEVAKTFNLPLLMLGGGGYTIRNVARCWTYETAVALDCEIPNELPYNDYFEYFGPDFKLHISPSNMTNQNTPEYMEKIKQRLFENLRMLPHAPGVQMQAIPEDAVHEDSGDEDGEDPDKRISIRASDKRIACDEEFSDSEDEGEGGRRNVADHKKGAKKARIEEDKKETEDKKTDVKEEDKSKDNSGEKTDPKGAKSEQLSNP

The subject of assay [1] is J774.A1. Description: Antiproliferative activity against mouse J774.A1 cells assessed as inhibition of cell growth incubated for 48 hrs by resazurin reagent based assay. The format is functional. (In general: Resazurin is reduced to fluorescent resorufin, in cell work by metabolically active cells.)
Assay [2] has as its target T1, Protein deacetylase HDAC6 (Mus musculus) (UniProt Q9Z2V5).
T1 sequence (whole entry): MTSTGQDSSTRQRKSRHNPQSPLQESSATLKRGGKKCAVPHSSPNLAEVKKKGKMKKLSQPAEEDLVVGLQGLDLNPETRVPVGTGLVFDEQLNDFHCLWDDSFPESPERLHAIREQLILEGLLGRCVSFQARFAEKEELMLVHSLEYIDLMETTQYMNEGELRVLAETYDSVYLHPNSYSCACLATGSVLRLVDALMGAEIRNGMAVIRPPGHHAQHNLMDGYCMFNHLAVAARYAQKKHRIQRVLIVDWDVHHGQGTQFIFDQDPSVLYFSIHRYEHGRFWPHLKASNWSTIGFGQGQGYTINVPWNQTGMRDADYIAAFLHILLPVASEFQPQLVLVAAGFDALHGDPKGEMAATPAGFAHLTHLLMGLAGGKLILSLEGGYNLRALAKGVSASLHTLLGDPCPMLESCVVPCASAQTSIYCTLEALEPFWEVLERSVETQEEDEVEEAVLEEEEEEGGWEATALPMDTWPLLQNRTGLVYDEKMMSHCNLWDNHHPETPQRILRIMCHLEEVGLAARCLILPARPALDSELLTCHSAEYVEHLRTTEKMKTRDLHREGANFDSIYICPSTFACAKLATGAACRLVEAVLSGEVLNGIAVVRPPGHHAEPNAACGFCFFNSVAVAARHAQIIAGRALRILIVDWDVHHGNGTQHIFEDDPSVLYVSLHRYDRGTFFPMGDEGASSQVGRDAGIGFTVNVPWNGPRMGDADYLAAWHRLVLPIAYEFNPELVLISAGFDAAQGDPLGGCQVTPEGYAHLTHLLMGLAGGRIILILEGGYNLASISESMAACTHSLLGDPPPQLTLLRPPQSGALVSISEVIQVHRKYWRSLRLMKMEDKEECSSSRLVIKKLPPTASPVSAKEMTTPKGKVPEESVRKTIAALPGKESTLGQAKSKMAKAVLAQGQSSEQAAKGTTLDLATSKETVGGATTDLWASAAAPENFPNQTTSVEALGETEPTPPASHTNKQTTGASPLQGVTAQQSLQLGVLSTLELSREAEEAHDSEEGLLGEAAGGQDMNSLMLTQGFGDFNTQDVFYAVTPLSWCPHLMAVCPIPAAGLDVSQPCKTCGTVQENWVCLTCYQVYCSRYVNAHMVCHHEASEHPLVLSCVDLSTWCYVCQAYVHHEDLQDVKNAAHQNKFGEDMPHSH
Briefly: Inhibition of HDAC6 in mouse J774.A1 cells assessed as increase in accumulation of acetylated alpha-tubulin incubated for 24 hrs by Western blot analysis. The note with it: dose 0.1-9 µM. The format is cell-based. (In general: A western blot detects proteins with antibodies after separation by electrophoresis.)

The target in assay [3] is Histone deacetylase 1 (Mus musculus) (UniProt O09106). Briefly: Inhibition of HDAC1 in mouse J774.A1 cells assessed as increase in acetylated histone H3 level at 3 to 9 uM incubated for 24 hrs by Western blot analysis. The format is cell-based. As to conditions: dose 3-9 µM.
For assay [4] the target is unchanged. Description: Inhibition of HDAC1 in mouse J774.A1 cells assessed as increase in acetylated histone H4 level at 3 to 9 uM incubated for 24 hrs by Western blot analysis. The format is cell-based. The note with it: dose 3-9 µM.
Assay [5] concerns the target Histone deacetylase 2 (Mus musculus) (UniProt P70288). Briefly: Inhibition of HDAC2 in mouse J774.A1 cells assessed as increase in acetylated histone H3 level at 3 to 9 uM incubated for 24 hrs by Western blot analysis. The format is cell-based. The note with it: dose 3-9 µM.
For assay [6] the target is unchanged. Description: Inhibition of HDAC2 in mouse J774.A1 cells assessed as increase in acetylated histone H4 level at 3 to 9 uM incubated for 24 hrs by Western blot analysis. The assay is classed as cell-based. As to conditions: dose 3-9 µM.
Assay [7] concerns the target T2, Histone deacetylase 3 (Mus musculus) (UniProt O88895).
T2 sequence (whole entry): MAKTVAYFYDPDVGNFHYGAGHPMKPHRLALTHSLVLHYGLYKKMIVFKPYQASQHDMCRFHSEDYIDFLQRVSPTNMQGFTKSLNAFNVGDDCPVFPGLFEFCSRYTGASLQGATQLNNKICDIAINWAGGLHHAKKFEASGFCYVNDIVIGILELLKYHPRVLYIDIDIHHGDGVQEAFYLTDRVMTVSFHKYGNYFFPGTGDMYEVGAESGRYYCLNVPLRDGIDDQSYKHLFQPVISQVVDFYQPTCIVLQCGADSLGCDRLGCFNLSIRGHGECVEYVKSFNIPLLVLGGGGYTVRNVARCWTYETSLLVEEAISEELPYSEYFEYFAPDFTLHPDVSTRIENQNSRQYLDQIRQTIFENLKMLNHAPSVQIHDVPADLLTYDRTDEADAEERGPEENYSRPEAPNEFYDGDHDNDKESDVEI
Description: Inhibition of HDAC3 in mouse J774.A1 cells assessed as increase in acetylated histone H3 level at 3 to 9 uM incubated for 24 hrs by Western blot analysis. The format is cell-based. The note with it: dose 3-9 µM.

The target of assay [8] is T2, Histone deacetylase 3 (Mus musculus). Description: Inhibition of HDAC3 in mouse J774.A1 cells assessed as increase in acetylated histone H4 level at 3 to 9 uM incubated for 24 hrs by Western blot analysis. The format is cell-based. The note with it: dose 3-9 µM.
Assay [9] relates to Mus musculus. Description: Anti-inflammatory activity against LPS-induced acute peritonitis male C57BL/6J mouse model assessed as reduction in IL-1beta level in serum at 20 mg/kg, po measured after 12 hrs by ELISA. The format is functional, organism-based. A general note: ELISA stands for enzyme-linked immunosorbent assay.
Assay [10] has as its system Mus musculus. Description: Anti-inflammatory activity against LPS-induced acute peritonitis male C57BL/6J mouse model assessed as reduction in IL-1beta level in serum at 40 mg/kg, po measured after 12 hrs by ELISA. The assay is classed as functional, organism-based.
Assay [11] has as its target Histone deacetylase 1 (Mus musculus) (UniProt O09106). Description: Inhibition of HDAC1 in mouse J774.A1 cells assessed as increase in acetylated histone H3 level at 0.1 to 9 uM incubated for 24 hrs by Western blot analysis. The assay is classed as cell-based. As to conditions: dose 0.1-9 µM.
The target is the same in assay [12]. Description: Inhibition of HDAC1 in mouse J774.A1 cells assessed as increase in acetylated histone H4 level at 0.1 to 9 uM incubated for 24 hrs by Western blot analysis. The assay is classed as cell-based. As to conditions: dose 0.1-9 µM.
The target of assay [13] is Histone deacetylase 2 (Mus musculus) (UniProt P70288). Description: Inhibition of HDAC2 in mouse J774.A1 cells assessed as increase in acetylated histone H3 level at 0.1 to 9 uM incubated for 24 hrs by Western blot analysis. The assay is classed as cell-based. The note with it: dose 0.1-9 µM.
Assay [14] has the same target. Briefly: Inhibition of HDAC2 in mouse J774.A1 cells assessed as increase in acetylated histone H4 level at 0.1 to 9 uM incubated for 24 hrs by Western blot analysis. The format is cell-based. The note with it: dose 0.1-9 µM.
Assay [15] deals with T2, Histone deacetylase 3 (Mus musculus). Briefly: Inhibition of HDAC3 in mouse J774.A1 cells assessed as increase in acetylated histone H3 level at 0.1 to 9 uM incubated for 24 hrs by Western blot analysis. The format is cell-based. The note with it: dose 0.1-9 µM.
The target is the same in assay [16]. Description: Inhibition of HDAC3 in mouse J774.A1 cells assessed as increase in acetylated histone H4 level at 0.1 to 9 uM incubated for 24 hrs by Western blot analysis. The assay is classed as cell-based. The note with it: dose 0.1-9 µM.
Assay [17] concerns Mus musculus. Description: Anti-inflammatory activity in DSS-induced colitis female BALB/C mouse model assessed as decrease in disease activity index score at 100 mg/kg, po administered every day for 8 days. The assay is classed as functional, organism-based. As to conditions: time 8.0 day.

Activity calls are given as the source filed them. No cut-off for these calls is given here.

As to `O=C(CCCCCCNC(=O)c1cnc(N(c2ccccc2)c2ccccc2)nc1)NO` [RICOLINOSTAT], in assay [1], the result was Active.

`CCNNC(=O)c1ccc(CN2c3ccccc3C=Cc3ccncc32)cc1`: in assay [2], the inhibition result is “Dose-dependent-effect”. In addition, the inhibition result in assay [3], in assay [4], in [5], in assay [6], in [7] and in assay [8] was “Active” in each case. In addition, in assay [9], the result was Active. In assay [10], the result was inactive.

`CCNNC(=O)c1cc(F)c(CN2c3ccccc3C=Cc3ccncc32)cc1F`: in assay [2], the inhibition result was “Dose-dependent-effect”. Moreover, the inhibition entry in assay [11], in assay [12], in [13], in assay [14], in assay [15] and in assay [16] was “inactive” in each case.

For the compound `CCNNC(=O)c1ccc(CN2c3ccccc3C=Cc3ccncc32)c(F)c1`, in [2], the inhibition result was “Dose-dependent-effect”. The inhibition entry in assay [3], in [4], in [5], in [6], in [7] and in assay [8] was “Active” throughout.

Take `Nc1ccc(O)c(C(=O)O)c1`: the outcome in [17] was Active.
